# US11370781B2, “Combination therapy for treating cancer” (Epizyme, Inc., priority 2012, dated 2022)
# Like-named read-outs stand apart in the source and are kept apart here.
# Tested on: SUDHL10 human lymphoma cells
# Details: 28 days
# Method: The animals were fed ad libitum water (reverse osmosis 1 ppm Cl) and NIH 31 Modified and Irradiated Lab Diet® consisting of 18.0% crude protein, 5.0% crude fat, and 5.0% crude fiber. The mice were housed on irradiated Enrich-o'cobs™ bedding in static microisolators on a 12-hour light cycle at 20-22° C. (68-72° F.) and 40-60% humidity. All procedures comply with the recommendations of the Guide for Care and Use of Laboratory Animals with respect to restraint, husbandry, surgical procedures, feed and fluid regulation, and veterinary care.
# Human lymphoma cell lines were harvested during mid-log phase growth, and resuspended in PBS with 50% Matrigel™ (BD Biosciences). Each mouse received 1×10^7 cells (0.2 mL cell suspension) subcutaneously in the right flank. […] Tumor size, in mm^3, was calculated from: […]
# Mice were treated at compound doses ranging from 75-600 mg/kg and at TID (3 times a day every 8 h), BID (twice a day every 12 h) or QD (once a day) schedules for various amount of days by oral gavage or injections via the intravenous, intraperitoneal or subcutaneous routes. Each dose was delivered in a volume of 0.2 mL/20 g mouse (10 mL/kg), and adjusted for the last recorded weight of individual animals. […]
# Treatment efficacy was determined on the last treatment day. MTV(n), the median tumor volume for the number of animals, n, evaluable on the last day, was determined for each group. […]
smiles,measurement,setting,value
"CCN(c1cc(-c2ccc(CN3CCOCC3)cc2)cc(C(=O)NCc2c(C)cc(C)[nH]c2=O)c1C)C1CCOCC1 [Compound 44, N-((4,6-dimethyl-2-oxo-1,2-dihydropyridin-3-yl)methyl)-5-(ethyl (tetrahydro-2H-pyran-4-yl)amino)-4-methyl-4′-(morpholinomethyl)-[1,1′-biphenyl]-3-carboxamide]",% TGI from day 1,Compound 44 250 mg/kg BID,101%
same,% TGI from day 1,Compound 44 500 mg/kg BID,104%
